The conditions of this series: salts of tetrahydrofuran-2,3,4,5-tetracarboxylic acid; 1 ml distilled water with around 20 to 40% by weight of salt, stirred 15 minutes; no = no clear solution.

Salt is water-soluble data for 1 compound are collected here from patent publication US20230265247A1, “PROCESS FOR PREPARING POLYIMIDES” (Technische Universität Wien, priority 2020, published 2023).

As to `Nc1cccc(N)c1.O=C(O)C1OC(C(=O)O)C(C(=O)O)C1C(=O)O` (stereo not shown) [Example V3], the Salt is water-soluble result is on record as “no”.
